Assay results as given in patent publication US4371535A, “Method of and composition for delivering 5-fluorouracil to tumors” (priority 1976, dated 1983).

Assay: in vivo
Conditions: mouse, po
Protocol: Mice (ddy strain, male, 5 weeks old) are reared for one week, then fasted for 15 hours and thereafter orally given the compound forcibly. After the administration, the mice are placed into plastic cages, with free access to a solid diet and water, and checked for mortality 3 days, one week, 2 weeks and 3 weeks later. LD50 is calculated according to the method of Litchfield and Wilcoxon. As a control drug, 1-(2-tetrahydrofuryl)-5-fluorouracil is used.

**Q.** Which LD50 at 72 h does the source give for `O=c1[nH]c(=O)n(C2CCCO2)cc1F` (stereo not shown) [1-(2-tetrahydrofuryl)-5-fluorouracil, reference compound] here?
**A.** The LD50 at 72 h was 1000 mg/kg.

**Q.** And the LD50 at 168 h?
**A.** Its LD50 at 168 h is 960 mg/kg.

**Q.** What about the LD50 at 336 h of the same compound?
**A.** Its LD50 at 336 h is 900 mg/kg.

**Q.** And the LD50 at 504 h?
**A.** Its LD50 at 504 h is 800 mg/kg.
